1 molecule from ChEMBL document CHEMBL2163206, “New nitrogen containing substituents at the indole-2-carboxamide yield high potent and broad spectrum indolylarylsulfone HIV-1 non-nucleoside reverse transcriptase inhibitors” (J Med Chem, 2012) can be followed below.

In the assay the target is Human immunodeficiency virus type 1 reverse transcriptase (Human immunodeficiency virus 1, UniProt Q72547). Nature of the assay: Inhibition of wild type HIV1 reverse transcriptase RNA-dependent DNA polymerase activity using poly(rA)/oligo(dT)10:1 and [3H]-dTTP substrate.

SMILES strings stand for the structures.

`Cc1cc(C#N)cc(C)c1Oc1nc(Nc2ccc(C#N)cc2)nc(N)c1Br` [ETRAVIRINE] displayed a half-maximal inhibitory concentration (IC50) of 10 nM.
